The text below walks through data of US20240197746A1, “COMBINATION THERAPY WITH A MEK INHIBITOR AND A SRC INHIBITOR FOR THE TREATMENT OF COLORECTAL CANCER” (Yeda Research and Development Co. Ltd., priority 2021, published 2024).

The assay deals with fresh & PDX human tumors. Briefly: EVOC drug dose calibration, cell death by H&E viability score. Format: cell-based. To be noted: concentrations that demonstrate a difference in amount of cell death in individual patient tissues. From the text: Tissue acquisition and EVOC. Female NOD scid gamma (NSG) mice (4-6 months old) bearing PDX tumors were purchased from Jackson Laboratories. Mice arrived to the facility when the tumors had grown sufficiently to be apparent (approximately 60 mm^3) and were maintained until the maximal permitted tumor volume of 1,000 mm^3 was achieved. Mice were killed with CO2, and tumor tissues were removed and placed in ice-cold PBS. […]
Human tumor tissue, either from primary colon cancer or metastatic lesions, was obtained from individuals at the time of operation or at the time of tissue core biopsy. […] Finally, 29 CRC primary or metastatic tumors from 28 individuals were analyzed by EVOC.
Histologic sections were assessed for viability by an independent blinded pathologist. Tissue viability was scored on a scale from 0 to 4, where 0 is less than 10% viable tissue and 4 is more than 90% viable tissue. […]
Determination of drug treatment concentrations. […] For the screens, we selected the doses that were minimally effective in killing tissue after 4 d of treatment as evaluated by H&E staining. […] This was evaluated by immunohistochemical staining after 24 h of treatment (FIGS. 11A-C). […]

Regarding 4-hydroxycyclophosphamide, the “Range eliciting differential response” value was 2 to 20 µM.
